Laboratory results from patent US20160177276A1 (Merck KGaA, published 2016).

Tests used:
CD47 (human) [1] = target: CD47 (human) (UniProt Q08722); assay: flow cytometry on human erythrocytes, 50 µg/ml; negative control
CD47 (human) [2] = target: CD47 (human) (UniProt Q08722); assay: flow cytometry on human erythrocytes, 50 µg/ml
CD47 (human) [3] = target: CD47 (human) (UniProt Q08722); assay: flow cytometry on CD47-high (CD47-transfected) CHO cells
CD47 (human) [4] = target: CD47 (human) (UniProt Q08722); assay: flow cytometry on CD47-low human Ramos cells
CD47 (human) [5] = target: CD47 (human) (UniProt Q08722); assay: flow cytometry on human erythrocytes, 50 µg/ml; the table prints 52%

% RBC MFI of anti-CD47 (CD47 (human) [1])	RBC MFI (CD47 (human) [1])	% RBC MFI of anti-CD47 (CD47 (human) [2])	RBC MFI (CD47 (human) [2])	EC50 (CD47 (human) [3])	EC50 (CD47 (human) [4])	% of anti-CD47 binding to erythrocytes (CD47 (human) [5])	Substance
1%	0.3	–	–	–	–	–	anti-EGFR huIgG1 (antibody; other documents disagree on this pair)
–	–	2%	0.4	8 nM	85 nM	–	anti-EGFR-huIgG1-(G4S)4-SIRPαV2 (other; other documents disagree on this pair)
–	–	37%	8.7	7 nM	3 nM	–	anti-EGFR-huIgG1-SIRPαV2 AS1 (L4V/V27I/I31T/K53R/S66T/K68R/F94L) (other; other documents disagree on this pair)
–	–	12%	2.9	3 nM	2 nM	–	anti-EGFR-huIgG1-SIRPαV2 AS2 (K53R/S66T/K68R) (other; other documents disagree on this pair)
–	–	52%	12.1	3 nM	2 nM	53%	anti-EGFR-huIgG1-SIRPαV2(1D4) (other; other documents disagree on this pair)
–	–	–	–	10 nM	–	–	anti-EGFR-huIgG1-SIRPαV2(E47Y) (other; other documents disagree on this pair)
–	–	1%	0.3	8 nM	81 nM	–	anti-EGFR-huIgG1-SIRPαV2(E54P) (other; other documents disagree on this pair)
–	–	4%	0.9	2 nM	13 nM	–	anti-EGFR-huIgG1-SIRPαV2(H56P) (other; other documents disagree on this pair)
–	–	–	–	12 nM	–	–	anti-EGFR-huIgG1-SIRPαV2(H56Y) (other; other documents disagree on this pair)
–	–	12%	2.9	2 nM	14 nM	–	anti-EGFR-huIgG1-SIRPαV2(I31R) (other; other documents disagree on this pair)
–	–	2%	0.5	4 nM	13 nM	–	anti-EGFR-huIgG1-SIRPαV2(I31T) (other; other documents disagree on this pair)
–	–	–	–	56 nM	–	–	anti-EGFR-huIgG1-SIRPαV2(K68H) (other; other documents disagree on this pair)
–	–	–	–	40 nM	–	–	anti-EGFR-huIgG1-SIRPαV2(M72N) (other; other documents disagree on this pair)
–	–	1%	0.3	8 nM	84 nM	–	anti-EGFR-huIgG1-SIRPαV2(M72R) (other; other documents disagree on this pair)
–	–	–	–	18 nM	–	–	anti-EGFR-huIgG1-SIRPαV2(P35G) (other; other documents disagree on this pair)
–	–	2%	0.3	6 nM	71 nM	–	anti-EGFR-huIgG1-SIRPαV2(Q37H) (other; other documents disagree on this pair)
–	–	–	–	13 nM	–	–	anti-EGFR-huIgG1-SIRPαV2(Q37V) (other; other documents disagree on this pair)
–	–	4%	1	2 nM	3 nM	–	anti-EGFR-huIgG1-SIRPαV2(Q37W) (other; other documents disagree on this pair)
–	–	–	–	33 nM	–	–	anti-EGFR-huIgG1-SIRPαV2(S66E) (other; other documents disagree on this pair)
–	–	–	–	25 nM	–	–	anti-EGFR-huIgG1-SIRPαV2(S66H) (other; other documents disagree on this pair)
–	–	21%	4.9	5 nM	2 nM	–	anti-EGFR-huIgG1-SIRPαV2(S66Q) (other; other documents disagree on this pair)
–	–	1%	0.4	3 nM	9 nM	–	anti-EGFR-huIgG1-SIRPαV2(V6I) (other; other documents disagree on this pair)
–	–	3%	0.7	2 nM	2 nM	–	anti-EGFR-huIgG1-SIRPαV2(V27I) (other; other documents disagree on this pair)
–	–	–	–	72 nM	–	–	anti-EGFR-huIgG1-SIRPαV2(V92N) (other; other documents disagree on this pair)
